{"source": "paper PMC3090454", "molecular_target": "soybean trypsin inhibitor (STI) (soybean) (UniProt P01070)", "experiment": "AUC", "data": [{"substance": "α-chymotrypsin (from UniProt P00766 1-13; P00766 16-146; P00766 149-245) (enzyme; other documents disagree on this pair)", "values": [{"measurement": "log10[Ka1] (1.7:1 data set, 280 nm data only, with mass conservation)", "result": 5.9}, {"measurement": "log10[Ka1] (1.7:1 data set, 280 nm data only, without mass conservation)", "result": 5.9}, {"measurement": "log10[Ka1] (1.7:1 data set, log10[Ka2/Ka1] fixed at −0.60206, RI noise only)", "result": 5.79}, {"measurement": "log10[Ka1] (1.7:1 data set, log10[Ka2/Ka1] fixed at −0.60206, with TI noise)", "result": 5.87}, {"measurement": "log10[Ka1] (1.7:1 data set, ratio of B to A floated)", "result": 5.89}, {"measurement": "log10[Ka1] (average of the data sets, 280 nm data only, with mass conservation)", "result": 5.76}, {"measurement": "log10[Ka1] (average of the five data sets, log10[Ka2/Ka1] fixed at −0.60206)", "result": 5.8}, {"measurement": "log10[Ka1] (average, log10[Ka2/Ka1] constraint removed)", "result": 5.4}, {"measurement": "stoichiometry N (α-chymotrypsin per STI)", "result": 2}]}]}
